Source: US12583836B2 (Anaxis Pharma Pty Ltd, priority 2020, dated 2026)

Amino acid sequences for entries named in this document (tags omitted). A change or cut given only in a name is not applied to a line headed by its entry.
UniProt Q9Y572: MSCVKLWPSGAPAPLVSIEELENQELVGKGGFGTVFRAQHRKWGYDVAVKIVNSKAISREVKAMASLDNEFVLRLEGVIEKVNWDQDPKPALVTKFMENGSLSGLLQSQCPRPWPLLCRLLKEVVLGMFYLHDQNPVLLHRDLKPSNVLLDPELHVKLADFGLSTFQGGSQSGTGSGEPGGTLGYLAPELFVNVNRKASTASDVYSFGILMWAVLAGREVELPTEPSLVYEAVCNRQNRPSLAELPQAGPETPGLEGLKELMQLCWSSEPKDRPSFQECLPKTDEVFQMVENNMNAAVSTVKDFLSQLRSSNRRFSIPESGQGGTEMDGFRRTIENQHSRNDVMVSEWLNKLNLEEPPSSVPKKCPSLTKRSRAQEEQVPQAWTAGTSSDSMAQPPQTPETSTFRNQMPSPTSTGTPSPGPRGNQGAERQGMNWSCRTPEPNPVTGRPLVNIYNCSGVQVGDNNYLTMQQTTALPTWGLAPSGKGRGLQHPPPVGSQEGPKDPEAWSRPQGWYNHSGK

Experiments:
Settings in all cases: equilibrium dissociation constant, class symbols
MLKL (full length) = target: T1, MLKL (full length) (Homo sapiens, UniProt Q8NB16); assay: KINOMEscan binding assay, MLKL
T1 construct: purchased DiscoverX (KINOMEscan service); host or cells: E. coli BL21-derived (T7 phage) or HEK293
T1 sequence (Q8NB16 1-471): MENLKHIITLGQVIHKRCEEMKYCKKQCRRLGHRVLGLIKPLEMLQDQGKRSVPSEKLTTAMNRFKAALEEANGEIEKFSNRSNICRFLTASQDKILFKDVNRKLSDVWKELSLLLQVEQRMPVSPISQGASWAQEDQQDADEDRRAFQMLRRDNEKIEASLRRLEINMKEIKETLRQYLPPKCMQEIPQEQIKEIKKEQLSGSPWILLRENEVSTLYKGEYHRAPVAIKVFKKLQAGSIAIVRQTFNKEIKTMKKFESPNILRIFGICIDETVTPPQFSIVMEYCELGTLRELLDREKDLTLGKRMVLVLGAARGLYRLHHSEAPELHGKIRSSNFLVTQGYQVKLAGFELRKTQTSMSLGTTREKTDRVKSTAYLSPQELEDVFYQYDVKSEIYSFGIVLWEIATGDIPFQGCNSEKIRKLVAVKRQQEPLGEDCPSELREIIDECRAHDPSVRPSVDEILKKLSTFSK

RIP3 = target: T2, RIP3 (Homo sapiens, UniProt Q9Y572); assay: KINOMEscan binding assay, RIP3
T2 construct: purchased DiscoverX (KINOMEscan service); host or cells: E. coli BL21-derived (T7 phage) or HEK293

RIP1 = target: T3, RIP1 (Homo sapiens, UniProt Q13546); assay: KINOMEscan binding assay, RIP1
T3 construct: purchased DiscoverX (KINOMEscan service); host or cells: E. coli BL21-derived (T7 phage) or HEK293
T3 sequence (Q13546 1-671): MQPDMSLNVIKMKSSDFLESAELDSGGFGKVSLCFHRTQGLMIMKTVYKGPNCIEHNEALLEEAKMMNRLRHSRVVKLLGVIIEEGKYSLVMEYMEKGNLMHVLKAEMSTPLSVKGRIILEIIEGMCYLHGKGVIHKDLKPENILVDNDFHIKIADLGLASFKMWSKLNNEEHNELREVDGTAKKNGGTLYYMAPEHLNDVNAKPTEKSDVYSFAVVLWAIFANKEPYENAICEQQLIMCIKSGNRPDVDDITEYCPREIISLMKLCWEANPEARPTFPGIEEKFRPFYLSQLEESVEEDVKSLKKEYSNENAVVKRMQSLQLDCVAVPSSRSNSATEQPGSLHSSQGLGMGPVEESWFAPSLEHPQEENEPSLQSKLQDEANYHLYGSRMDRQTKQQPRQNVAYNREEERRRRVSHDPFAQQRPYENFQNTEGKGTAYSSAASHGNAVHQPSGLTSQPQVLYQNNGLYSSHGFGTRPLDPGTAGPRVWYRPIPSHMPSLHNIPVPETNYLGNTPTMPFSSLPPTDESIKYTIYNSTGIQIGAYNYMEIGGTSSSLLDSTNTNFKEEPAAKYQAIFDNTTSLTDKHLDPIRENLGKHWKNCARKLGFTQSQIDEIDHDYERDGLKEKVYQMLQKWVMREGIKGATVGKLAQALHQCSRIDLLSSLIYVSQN

Row | SMILES | Kd (MLKL (full length)) | Kd (RIP3) | Kd (RIP1)
1 | C[C@H](Oc1cc(-c2n[nH]c(Nc3cc(C4(C(F)(F)F)CC4)on3)c2C(N)=O)ccc1NS(=O)(=O)C(F)F)c1ccc(F)cc1 [Compound 289, (S)-3-(4-((difluoromethyl)sulfonamido)-3-(1-(4-fluorophenyl)ethoxy)phenyl)-5-((5-(1-(trifluoromethyl)cyclopropyl)isoxazol-3-yl)amino)-1H-pyrazole-4-carboxamide] | < 0.01 µM | > 30 µM | > 30 µM
2 | NC(=O)c1c(-c2ccc(NS(=O)(=O)CC(F)(F)F)cc2)n[nH]c1Nc1ccccn1 [Compound 268, 5-[(pyridin-2-yl)amino]-3-[4-(2,2,2-trifluoroethanesulfonamido)phenyl]-1H-pyrazole-4-carboxamide] | < 0.01 µM | > 30 µM | > 30 µM
3 | CCS(=O)(=O)Nc1ccc(-c2n[nH]c(Nc3cnc(C4CC4)cn3)c2C(N)=O)cc1 [Compound 158, 5-((5-cyclopropylpyrazin-2-yl)amino)-3-(4-(ethylsulfonamido)phenyl)-1H-pyrazole-4-carboxamide] | < 0.01 µM | > 30 µM | > 30 µM
4 | CCS(=O)(=O)Nc1ccc(-c2n[nH]c(Nc3cc(OC)ncc3C)c2C(N)=O)cc1 [Compound 118, 3-(4-(ethylsulfonamido)phenyl)-5-((2-methoxy-5-methylpyridin-4-yl)amino)-1H-pyrazole-4-carboxamide] | 0.01 to 1 µM | > 30 µM | > 30 µM
5 | CCS(=O)(=O)Nc1ccc(-c2n[nH]c(Nc3ccccn3)c2C(N)=O)cc1OCc1ccc(Cl)cc1 [Compound 39, 3-(3-((4-chlorobenzyl)oxy)-4-(ethylsulfonamido)phenyl)-5-(pyridin-2-ylamino)-1H-pyrazole-4-carboxamide] | < 0.01 µM | > 30 µM | 1 to 30 µM
6 | COc1ccc(Nc2[nH]nc(-c3ccc(NS(=O)(=O)C(F)F)c(OCc4ccc(F)cc4)c3)c2C(N)=O)cn1 [Compound 196, 3-(4-((difluoromethyl)sulfonamido)-3-((4-fluorobenzyl)oxy)phenyl)-5-((6-methoxypyridin-3-yl)amino)-1H-pyrazole-4-carboxamide] | < 0.01 µM | > 30 µM | > 30 µM
7 | Cc1cn(C)nc1Nc1[nH]nc(-c2ccc(NS(=O)(=O)C(F)F)c(O[C@@H](C)c3ccc(F)cc3)c2)c1C(N)=O [Compound 286] | < 0.01 µM | > 30 µM | > 30 µM
8 | CCS(=O)(=O)Nc1ccc(-c2n[nH]c(Nc3cc4ccccc4cn3)c2C(N)=O)cc1 [Compound 87, 3-(4-(ethylsulfonamido)phenyl)-5-(isoquinolin-3-ylamino)-1H-pyrazole-4-carboxamide] | < 0.01 µM | > 30 µM | > 30 µM
9 | C[C@H](Oc1cc(-c2n[nH]c(Nc3cc(C4(C)COC4)on3)c2C(N)=O)ccc1NS(=O)(=O)C(F)F)c1ccc(F)cc1 [Compound 292, (S)-3-(4-((difluoromethyl)sulfonamido)-3-(1-(4-fluorophenyl)ethoxy)phenyl)-5-((5-(3-methyloxetan-3-yl)isoxazol-3-yl)amino)-1H-pyrazole-4-carboxamide] | < 0.01 µM | > 30 µM | > 30 µM
10 | C[C@H](Oc1cc(-c2n[nH]c(Nc3cc(C4CCC4)on3)c2C(N)=O)ccc1NS(=O)(=O)C(F)F)c1ccc(F)cc1 [Compound 281, (S)-5-((5-cyclobutylisoxazol-3-yl)amino)-3-(4-((difluoromethyl)sulfonamido)-3-(1-(4-fluorophenyl)ethoxy)phenyl)-1H-pyrazole-4-carboxamide] | < 0.01 µM | > 30 µM | > 30 µM
11 | NC(=O)c1c(-c2ccc(NS(=O)(=O)C(F)F)c(Oc3ccc(F)cc3)c2)n[nH]c1Nc1cccc(C(F)(F)F)n1 [Compound 147, 3-(4-((difluoromethyl)sulfonamido)-3-(4-fluorophenoxy)phenyl)-5-((6-(trifluoromethyl)pyridine-2-yl)amino)-1H-pyrazole-4-carboxamide] | < 0.01 µM | > 30 µM | > 30 µM
12 | Cc1ccc(CS(=O)(=O)Nc2ccc(-c3n[nH]c(Nc4cccc(C(F)(F)F)n4)c3C(N)=O)cc2)cc1 [Compound 57, 3-(4-((p-tolylmethyl)sulfonamido)phenyl)-5-((6-(trifluoromethyl)pyridin-2-yl)amino)-1H-pyrazole-4-carboxamide] | 0.01 to 1 µM | > 30 µM | 1 to 30 µM
13 | C[C@H](Oc1cc(-c2n[nH]c(Nc3cnc(C4CCOCC4)cn3)c2C(N)=O)ccc1NS(=O)(=O)C(F)F)c1ccc(F)cc1 [Compound 296, (S)-3-(4-((difluoromethyl)sulfonamido)-3-(1-(4-fluorophenyl)ethoxy)phenyl)-5-((5-(tetrahydro-2H-pyran-4-yl)pyrazin-2-yl)amino)-1H-pyrazole-4-carboxamide] | < 0.01 µM | > 30 µM | > 30 µM
14 | CCS(=O)(=O)Nc1ccc(-c2n[nH]c(Nc3cnccn3)c2C(N)=O)cc1OCc1ccc(F)cn1 [Compound 156, 3-(4-(ethylsulfonamido)-3-((5-fluoropyridin-2-yl)methoxy)phenyl)-5-(pyrazin-2-ylamino)-1H-pyrazole-4-carboxamide] | < 0.01 µM | > 30 µM | > 30 µM
15 | C[C@H](Oc1cc(-c2n[nH]c(Nc3cc(C4CCOCC4)ccn3)c2C(N)=O)ccc1NS(=O)(=O)C(F)F)c1ccc(F)cc1 [Compound 287, (S)-3-(4-((difluoromethyl)sulfonamido)-3-(1-(4-fluorophenyl)ethoxy)phenyl)-5-((4-(tetrahydro-2H-pyran-4-yl)pyridin-2-yl)amino)-1H-pyrazole-4-carboxamide] | < 0.01 µM | > 30 µM | > 30 µM
16 | COCCOc1cc(Nc2[nH]nc(-c3ccc(NS(=O)(=O)CC#N)cc3)c2C(N)=O)ccn1 [Compound 110, 3-(4-((cyanomethyl)sulfonamido)phenyl)-5-((2-(2-methoxyethoxy)pyridin-4-yl)amino)-1H-pyrazole-4-carboxamide] | < 0.01 µM | > 30 µM | > 30 µM
17 | CCS(=O)(=O)Nc1ccc(-c2n[nH]c(Nc3cnccn3)c2C(N)=O)cc1OC [Compound 61, 3-(4-(ethylsulfonamido)-3-methoxyphenyl)-5-(pyrazin-2-ylamino)-1H-pyrazole-4-carboxamide] | 0.01 to 1 µM | 1 to 30 µM | > 30 µM
18 | CCCS(=O)(=O)Nc1ccc(-c2n[nH]c(Nc3cnccn3)c2C(N)=O)cc1 [Compound 97, 3-(4-(propylsulfonamido)phenyl)-5-(pyrazin-2-ylamino)-1H-pyrazole-4-carboxamide] | 0.01 to 1 µM | > 30 µM | > 30 µM
19 | CCS(=O)(=O)Nc1ccc(-c2c(C(N)=O)c(Nc3cnccn3)nn2C)cc1 [Compound 222, 5-(4-(ethylsulfonamido)phenyl)-1-methyl-3-(pyrazin-2-ylamino)-1H-pyrazole-4-carboxamide] | < 0.01 µM | > 30 µM | > 30 µM
20 | NC(=O)c1c(-c2ccc(NS(=O)(=O)CC(F)(F)F)c(OCc3ccc(F)c(Cl)c3)c2)n[nH]c1Nc1cnccn1 [Compound 225, 3-{3-[(3-chloro-4-fluorophenyl)methoxy]-4-(2,2,2-trifluoroethane-sulfonamido)phenyl}-5-[(pyrazin-2-yl)amino]-1H-pyrazole-4-carboxamide] | < 0.01 µM | > 30 µM | > 30 µM
21 | CCS(=O)(=O)Nc1ccc(-c2n[nH]c(Nc3ccnc(OC)c3)c2C(N)=O)cc1 [Compound 121, 3-(4-(ethylsulfonamido)phenyl)-5-((2-methoxypyridin-4-yl)amino)-1H-pyrazole-4-carboxamide] | < 0.01 µM | 1 to 30 µM | 1 to 30 µM
22 | CCS(=O)(=O)Nc1ccc(-c2n[nH]c(Nc3cnccn3)c2C(N)=O)c(OC)c1 [Compound 209, 3-(4-(ethylsulfonamido)-2-methoxyphenyl)-5-(pyrazin-2-ylamino)-1H-pyrazole-4-carboxamide] | 0.01 to 1 µM | > 30 µM | > 30 µM
23 | NC(=O)c1c(-c2ccc(NS(=O)(=O)CC(F)(F)F)c(OCc3ccc(F)cc3)c2)n[nH]c1Nc1cnc(C(F)(F)F)cn1 [Compound 238, 3-{3-[(4-fluorophenyl)methoxy]-4-(2,2,2-trifluoroethanesulfonamido)phenyl}-5-{[5-(trifluoromethyl)pyrazin-2-yl]amino}-1H-pyrazole-4-carboxamide] | < 0.01 µM | > 30 µM | > 30 µM
